Data as given in patent publication US8673949B2 (Bristol-Myers Squibb Company, priority 2008, dated 2014).

Assay: Histopathology of multiple tissues in mice dosed weekly IP
Settings: 1 mpk and 10 mpk IP once weekly for 2 or 6 months, liver, kidney, heart, testes, adrenal gland, bone marrow, peripheral nerve, stomach, intestines

Which “histopathological abnormalities in multiple tissues” value does the source give for `C/C1=C/C[C@@H](/C(C)=C/c2csc(C)n2)OC(=O)C[C@H](O)C(C)(C)C(=O)[C@H](C)[C@@H](O)[C@@H](C)CCC1` [Epothilone D, epothilone D] here?
Its value is “no histopathological abnormalities were observed”.
